Data taken from US7334580B2, “Methods, devices and formulations for targeted endobronchial therapy” (priority 2003, dated 2008).

Test: Bench model with proximal airways tube, aerosol catheter in ET tube, continuous administration
Conditions: aerosol delivered to distal airways, cascade impactor, MEAN ± SEM
Experimental: The endotracheal tube 1006 (or tracheostomy tube), instead of being in the patient 10, is attached to 100 ml tube 4000, which models the proximal airways (i.e., trachea 70 and mainstream bronchi 210); the 100 ml tube 4000 is attached to the inhaled mass filter 1040. In other words (describing the arrangement moving in the direction of the patient 10), the Y piece 1003 is connected to the ET tube 1006, which is connected to the 100 ml tube 4000, which is attached to the inhaled mass filter 1040 (the filter measures aerosol that will pass out of the proximal airways and enter the distal lung).
In a first experiment, the bench model of FIG. 16B was tested with an aerosol catheter 103 (the Trudell catheter, Trudell Medical International); a standard Y-piece 1003 was used (without any nebulizer). […] The inhaled mass was measured in two parts: the proximal airways (100 ml tube 4000) and distal airways (filter 1040 distal to the 100 ml tube 4000). The Mass Median Aerodynamic Diameter (MMAD) was measured in aerosol delivered to distal airways using a cascade impactor. The test was performed with two different ventilators with the humidity feature active and off. Administration of the aerosol was continuous (not breath actuated). The data reveal that administration of aerosol in this manner is relatively insensitive to humidity.

MMAD (Drager, humidity off): 1.23 ± 0.1 | MMAD (Drager, humidity on): 1.30 ± 0.2 | MMAD (T-Bird, humidity off): 1.12 ± 0.2 | MMAD (T-Bird, humidity on): 1.72 ± 0.2
Structure (SMILES): CC(C)(C)NCC(O)c1ccc(O)c(CO)c1 (stereo not shown) [albuterol]
